Test results as given in article PMC5524698, “A cell-based, quantitative and isoform-specific assay for exchange proteins directly activated by cAMP” (Scientific Reports, 2017).

Biological target: T1, EPAC2 (Mus musculus, UniProt Q9EQZ6)
T1 construct: HEK293 cell lines stably expressing Flag-tagged Rap1A and full-length EPAC1 or EPAC2 are proposed; expressed in transfected cells
T1 sequence (Q9EQZ6 1-1011): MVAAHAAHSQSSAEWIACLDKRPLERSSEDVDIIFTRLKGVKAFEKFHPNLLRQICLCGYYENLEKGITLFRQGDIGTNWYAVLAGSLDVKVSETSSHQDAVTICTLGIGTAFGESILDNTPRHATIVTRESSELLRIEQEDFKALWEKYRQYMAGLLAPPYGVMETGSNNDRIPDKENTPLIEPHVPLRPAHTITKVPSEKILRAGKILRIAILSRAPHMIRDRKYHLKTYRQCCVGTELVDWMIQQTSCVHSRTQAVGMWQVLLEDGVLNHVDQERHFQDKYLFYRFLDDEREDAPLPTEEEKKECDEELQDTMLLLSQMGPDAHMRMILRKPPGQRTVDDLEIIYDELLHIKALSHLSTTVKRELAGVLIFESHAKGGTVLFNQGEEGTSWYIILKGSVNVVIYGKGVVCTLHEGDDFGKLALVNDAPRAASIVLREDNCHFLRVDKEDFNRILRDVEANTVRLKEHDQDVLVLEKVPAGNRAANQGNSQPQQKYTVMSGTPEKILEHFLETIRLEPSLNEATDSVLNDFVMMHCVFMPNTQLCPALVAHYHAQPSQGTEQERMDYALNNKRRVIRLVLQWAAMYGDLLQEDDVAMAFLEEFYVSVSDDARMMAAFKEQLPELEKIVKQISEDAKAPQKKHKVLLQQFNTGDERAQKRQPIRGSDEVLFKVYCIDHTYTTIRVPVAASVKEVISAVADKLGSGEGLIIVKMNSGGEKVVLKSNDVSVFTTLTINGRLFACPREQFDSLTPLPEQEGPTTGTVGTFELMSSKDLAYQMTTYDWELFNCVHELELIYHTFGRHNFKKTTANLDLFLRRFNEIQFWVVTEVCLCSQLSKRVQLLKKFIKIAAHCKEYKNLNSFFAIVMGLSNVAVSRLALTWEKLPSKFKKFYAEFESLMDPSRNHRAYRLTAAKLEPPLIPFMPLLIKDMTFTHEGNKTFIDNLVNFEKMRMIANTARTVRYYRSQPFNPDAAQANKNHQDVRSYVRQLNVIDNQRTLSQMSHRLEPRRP
Experiment: Cellular Rap1 assay (ELISA for Rap1-GTP) in HEK293/mEPAC2/Flag-Rap1 cells
Type: cell-based
Source text: To develop a cell-based, isoform-specific EPAC activation assay, HEK293 cell lines stably expressing Flag-tagged Rap1A and full-length EPAC1 or EPAC2 are proposed. HEK293 cells express minimal endogenous levels of EPAC1 and EPAC2 and have been used as host cells for evaluating the cellular activities of ectopically expressed EPAC proteins in an isoform-specific manner. Activation of EPAC1 or EPAC2 in these cell lines by cAMP elevating agents leads to the accumulation of Flag-Rap1-GTP, which can be captured by RalGDS-RBD immobilized in a nickel-coated 96-well microplate. The levels of active Flag-Rap1-GTP protein can be quantitatively monitored using a specific anti-FLAG antibody and a HRP conjugated secondary antibody in a manner similar to that of a conventional ELISA assay (Fig. 1). […]
HEK293 cells co-expressing hEPAC1/Flag-tagged hRap1A or mEPAC2/Flag-tagged hRap1A were seeded in 12-well plates (Corning #3513) at an initial confluency of 400,000 cell/well and incubate at 37 °C, 5% CO2, in MEM medium with 10% FBS, for 24 hours. […] Cell extracts were clarified by centrifugation at 18,000 RCF for 20 min and their protein concentrations were determined by DC protein assay kit. […] 200 µl of OPD substrate was added into each well and absorbance signal at 450 nm was monitored using an M2 microplate reader (Molecular Devices) for 30 min with 1-min intervals. […]

For Cc1ccc(S(=O)(=O)c2c(C)cc(C)cc2C)cc1 [ESI-05], the IC50 (basal (unstimulated) HEK293/mEPAC2/Flag-Rap1 cells, read-out: IC50, inhibition of basal EPAC2 activity) was 1200 ± 400 nM and the IC50 (stimulated by 1 µM forskolin, pretreatment, HEK293/mEPAC2/Flag-Rap1 cells, read-out: apparent IC50, inhibition of cellular EPAC2 activity) was 621 ± 154 nM.

Read-outs that look alike come from different tables or passages of the source.
